From ChEMBL document CHEMBL1142627, “Ribofuranosyl triazolone: a natural product herbicide with activity on adenylosuccinate synthetase following phosphorylation” (J Nat Prod, 2000) come the findings set out here.

In this assay the test system is BMS. In words: Inhibition of Zea mays BMS cells Adenylosuccinate synthase assessed as adenylosuccinate formation. It is filed as cell-based.

Take `O=c1[nH]ncn1[C@@H]1O[C@H](COP(=O)(O)O)[C@@H](O)[C@H]1O` [PHOSPHORIBOFURANOSYL TRIAZOLONE]: the Activity entry is “tde”.
